# Binding of CDR-mutated scFvs to a peptide of the spike HR2 region

The target is the same throughout: PDVDLGDISGINAS, from the HR2 region of SARS-CoV-2 spike.

Parent: Ab-14, a human scFv built as VH, the linker GGGGSGGGGSGGGGS, VL. Only the CDRs of the light chain vary.
VH: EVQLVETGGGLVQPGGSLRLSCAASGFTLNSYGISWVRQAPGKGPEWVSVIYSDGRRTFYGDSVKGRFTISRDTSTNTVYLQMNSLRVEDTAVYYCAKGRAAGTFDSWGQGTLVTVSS
VL: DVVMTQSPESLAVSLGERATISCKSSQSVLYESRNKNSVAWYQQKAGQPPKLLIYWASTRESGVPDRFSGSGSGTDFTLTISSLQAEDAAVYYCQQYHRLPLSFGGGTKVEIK

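The starting antibody came from a phage panning campaign against this peptide. Designed CDR sequences, proposed from the first random library and measured here. Several design methods are mixed in this list. In AlphaSeq, yeast of one mating type display the scFv and yeast of the other type display the target. Mating (16 h, 30 °C) was followed by selection of diploids and sequencing of their barcodes. A regression on co-assayed BCL2-family reference pairs converts the normalised counts of each replicate to an apparent Kd. The assay was run in six technical replicates.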

Each variant is given by its three light chain CDRs, as the data file delimits them; those of the parent are KSSQSVLYESRNKNSVA, WASTRES, QQYHRLPLS.
Numbers give log10(Kd / nM), so 0 is 1 nM and 3 is 1 µM. Smaller is tighter.
Averages over replicates are reported, and they cover detected replicates only.
"not detected" means that the variant was in the library but no mating with the target was seen in any replicate; the authors take this as a sign of poor binding, and no number exists.
A sequence measured in both rounds can read differently, since the two assays cover different ranges.

| CDR-L1 | CDR-L2 | CDR-L3 | mean log10 Kd (nM) | detected |
|---|---|---|---|---|
| KVSQSVLYEERNKNSVA | DASQRES | QQYHRLPLS | 0.16 | 6 of 6 |
| KSSQSWLYESRNKNSVA | GASYREV | QQYHRLPLS | -0.55 | 6 of 6 |
| KLSQSVDYEERNKAQVA | DASTRMS | QQYHRLPLS | -0.10 | 6 of 6 |
| KLSQSMEYESRNKNSVA | NASTRMS | QQYHRLPLS | 0.13 | 6 of 6 |
| KISMEPLVEWNRAQAIA | DAHASYI | QQYFHLPLY | 2.80 | 2 of 6 |
| KLSQSFLYESRQKNSVA | GASQRES | QQYHRLPLS | 0.00 | 6 of 6 |
| VFQEYVQGVEQDYNNIA | ENSYASR | QQYFRLPLA | not detected | 0 of 6 |
| KSSTGVLYESRNKNSVA | GASTRES | QQYHRLPLS | 0.73 | 6 of 6 |
| QIDSFYQHGTDQKKAMA | DSSVRTQ | QQYSRLPLS | -0.25 | 6 of 6 |
| KMSGSDMMLSRNWNSVA | QASTREQ | QQYHRLPLS | 0.51 | 6 of 6 |
| FLAYASDQTGLQKNAIA | QVNLKEN | QQYERLPLA | 2.25 | 2 of 6 |
| KSSQSVLYESRNKNSIA | HASTRER | QQYHRLPLS | 1.49 | 6 of 6 |
| KLDMWQLGGSRNKNSVA | SASTRCS | QQYHRLPLS | 0.66 | 6 of 6 |
| KFEQLWGQEDRNKNSVA | NASQRED | QQYHRLPLS | -0.22 | 6 of 6 |
| KLSMSVLYESRVKNSVA | EAVQRES | QQYHRLPLS | -0.31 | 6 of 6 |
| KSGQSVLYESRNKASVA | WASTRES | QQYHRLPLS | 2.01 | 3 of 6 |
| KMSQEVDLESRNVNSVA | MASTRED | QQYHRLPLS | 0.59 | 6 of 6 |
| KCSQNVLIMGRNKNNVA | EMTTREE | QQYDHLPLS | 0.20 | 6 of 6 |
| KLQQSVLYESRNKNSVA | EASTRES | QQYHRLPLS | -0.33 | 6 of 6 |
| KLQQSTLYESRNKNSVA | WASTRLS | QQYHRLPLS | 0.84 | 6 of 6 |
| KVQQSVPYGDRNKNSVA | HASTRSS | QDYHRLPLS | 0.75 | 6 of 6 |
| KHSQSVLYESRNKNSVA | WASTHES | QQYHRLPLS | not detected | 0 of 6 |
| KLRGSTLYESRNKNSVA | LASTRES | QQYHRLPLS | 1.46 | 6 of 6 |
| NLSIQCQHQNMSANAVA | QTEIRCE | QQYAQLPLA | 1.38 | 6 of 6 |
| RIDAYPPIQGNNIDSIA | ENAITLD | QQYAQLPLS | 1.97 | 6 of 6 |
| KSSQSVWYESRNKNSVA | PASTRES | QQYHRLPLS | 1.24 | 1 of 6 |
| KSSVSYLYESRNENSVA | EASTREQ | QQYHRLPLS | 0.18 | 6 of 6 |
| KISQSVLYESRNKNSVA | AASTRCS | QQYHRLPLS | 0.05 | 6 of 6 |
| KSSHSYLEESRNKNSVA | EASTRES | QQYHRLPLS | 1.01 | 6 of 6 |
| KPSQSVLYESRAKNSVA | GASTPES | QQYHRLPLS | 1.14 | 6 of 6 |
| KFSESVGYESRNKNSVA | WASTRES | CQYHRLPLS | 1.92 | 5 of 6 |
| KLRMSTLYESRNKNSVA | YASTRES | QQYHRLPLS | 0.72 | 6 of 6 |
| KLSLSMSFSEEGTRHIA | NGSNRCH | QQYHRLPLI | 0.80 | 6 of 6 |
| KFSQSVLYESRNKNSVA | YASTRES | QQYHRLPLS | 0.41 | 6 of 6 |
| SLMQVGGYESNEKNSIA | DLRTRES | QQYHRLPLS | 0.92 | 6 of 6 |
| KLSQSVLVESRNKNSVA | NASTRED | QQYHRLPLS | -0.39 | 6 of 6 |
| TISQSWYIESRNKNNVA | EMSTREN | QDYDRLPLS | 0.13 | 6 of 6 |
| KLQQSELYESRNKNSVA | EASQRLS | QQYHRLPLS | 0.20 | 6 of 6 |
| KAQLDHQGQPRNHNSIA | EGISRTT | QQYFRLPLM | 0.15 | 6 of 6 |
| KSSMSWEYESRNSNSVA | HASTRED | QQYHRLPLI | 0.42 | 6 of 6 |
| KVSQSVGYGSRNKWSVA | EASTRES | QQYHRLPLS | 0.94 | 6 of 6 |
| KSSQSVLYESRNKNSVA | WASTRCS | QQYHRLPLS | 1.28 | 6 of 6 |
| TIGQTLMTGVRNRSNVA | EVSQRLN | QQYDRLPLF | 1.18 | 6 of 6 |
| KLQQSWGYQSRNKNSVA | NASTRED | QQYHRLPLS | 0.75 | 6 of 6 |
| NLSQSWLYESRNKNSVA | EGNTRES | QQYHRLPLS | -0.31 | 6 of 6 |
| TLVDNIQGGMWAKKNVA | DESTRVN | QQYYRLPLS | -0.32 | 6 of 6 |
| MLTNETDGNYGRANSVA | NAEELMT | QAYFRLPIT | 0.93 | 6 of 6 |
| ILWQSQLYESRNKNSVA | NASTREM | QQYHRLPLS | 0.32 | 6 of 6 |
| MLWQQMEGFNLVKDAIA | NAEERTG | QQYGRLPLS | 2.22 | 5 of 6 |
| KLSQSVLYESRNKNSVA | NASYRES | QQYHRLPLS | -0.20 | 6 of 6 |
| KLGATMNTEMTKRNNVA | DLVEREN | QQYFRLPLS | -0.06 | 6 of 6 |
| KMSQSVGYESRNKNSVA | DASTRES | QQYHRLPLS | -0.38 | 6 of 6 |
| KISQSVEYESRDKNSVA | SANTRLS | QQYHRLPLS | 0.49 | 6 of 6 |
| KISMYLNKESKAGNNVA | EMVNRES | QQYDRLPLS | 0.62 | 6 of 6 |
| KVSQSNLYESRNKNSVA | DASQRES | QQYHRLPLS | -0.03 | 6 of 6 |
| KMSQSVLMESRNKNSVA | GASTRES | QQYHRLPLS | -0.18 | 6 of 6 |
| KSSQSVLPSSRNQNSVA | DASTRVS | QQYHRLPLL | 0.54 | 6 of 6 |
| KSSWSVLYESRNKNSVA | WASNRES | QQYHRLPLS | not detected | 0 of 6 |
| HMMSGSVEQWNIENAVA | EMSEVYR | QQYVSLPLS | not detected | 0 of 6 |
| KSSQSVLYESRNKNSVA | DASTREK | QQYERLPLS | 0.46 | 6 of 6 |
| KLSMSVWMGSRNKNSVA | SANTREE | QQYHRLPLS | -0.24 | 6 of 6 |
| KWSQSHLYESRNWNAVA | EASTRPS | QQYHRLPLS | not detected | 0 of 6 |
| KSSQSWLYESRNKNSVA | GSSTRES | QQYHRLPLS | -0.20 | 6 of 6 |
| KSSQSDLYESRNGNSVA | NASTRED | QQYHRLPLS | 0.13 | 6 of 6 |

As a blank, each scFv also met three strains without target: over all light chain designs, 4% of these pairings were detected, typically at 2.64 and seldom below 1.59.
The authors averaged sequences with at least three values out of six and counted those with two or fewer as poor binders.
The parent sequence was in this pool as ten entries: three were never detected, three once, and four in most replicates, with averages from 0.34 to 2.37.

Data: MIT Lincoln Laboratory AlphaSeq set, Li et al. 2023, doi:10.1038/s41467-023-39022-2, as distributed in FLAb.